Results published in patent US20230271983A1, “FUNCTIONALIZED ISONITRILES AND PRODUCTS, PREPARATION AND USES THEREOF” (UNIVERSIDADE DE SANTIAGO DE COMPOSTELA, priority 2020, published 2023).

Sequences of proteins named here, by UniProt entry; tags and fusion partners are left off.
UniProt P30542, whole entry: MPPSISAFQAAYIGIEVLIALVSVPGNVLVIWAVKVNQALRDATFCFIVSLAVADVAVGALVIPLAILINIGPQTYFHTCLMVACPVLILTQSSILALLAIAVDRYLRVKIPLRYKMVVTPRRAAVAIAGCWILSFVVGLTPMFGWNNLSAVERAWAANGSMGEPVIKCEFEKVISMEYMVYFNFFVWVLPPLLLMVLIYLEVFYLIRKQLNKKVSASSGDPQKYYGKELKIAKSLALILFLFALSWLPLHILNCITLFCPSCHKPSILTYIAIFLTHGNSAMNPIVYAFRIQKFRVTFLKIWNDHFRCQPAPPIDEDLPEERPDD
UniProt P0DMS8, whole entry: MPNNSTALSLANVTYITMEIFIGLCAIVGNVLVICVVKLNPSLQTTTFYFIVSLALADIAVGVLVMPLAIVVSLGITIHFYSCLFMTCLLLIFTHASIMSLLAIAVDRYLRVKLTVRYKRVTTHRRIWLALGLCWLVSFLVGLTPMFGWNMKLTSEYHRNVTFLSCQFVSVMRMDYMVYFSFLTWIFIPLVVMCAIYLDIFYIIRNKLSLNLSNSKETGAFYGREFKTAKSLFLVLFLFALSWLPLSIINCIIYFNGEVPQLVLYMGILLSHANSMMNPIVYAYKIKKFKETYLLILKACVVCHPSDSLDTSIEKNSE
UniProt P29275, whole entry: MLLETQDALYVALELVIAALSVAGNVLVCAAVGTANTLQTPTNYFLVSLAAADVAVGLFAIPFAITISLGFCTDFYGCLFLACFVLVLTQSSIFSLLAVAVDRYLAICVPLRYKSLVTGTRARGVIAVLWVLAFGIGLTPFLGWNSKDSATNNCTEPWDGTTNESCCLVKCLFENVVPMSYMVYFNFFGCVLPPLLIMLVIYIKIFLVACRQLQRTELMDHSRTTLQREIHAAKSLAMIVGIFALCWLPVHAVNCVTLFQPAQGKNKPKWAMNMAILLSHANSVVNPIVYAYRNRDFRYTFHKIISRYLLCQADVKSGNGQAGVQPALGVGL

Legend:
[1] = target: human A2AAR (Homo sapiens, UniProt P29274); test: A2AAR radioligand competition binding, [3H]ZM241385, HeLa cell membranes; details: at 1 μM
Description: (§1) was evaluate in vitro using radioligand binding assays following a previously described protocol (J. Med. Chem. 2019, 62, 9315-9330). Human ARs were expressed in transfected cell lines [e.g. chinese hamster ovary (CHO) cells (A1AR), human epithelial carcinoma (HeLa) cells (A2AAR and A3AR) and human embryonic kidney (HEK-293) cells (A2BAR)]. [^3H]DPCPX for A1AR and A2BAR, [^3H]NECA for A3AR, and [^3H]ZM241385 for A2AAR were employed as radioligands. […] Using Prism 5.0 software (GraphPad, San Diego, Calif.) K; values were acquired by fitting the data by non-linear regression. Results are the average of three experiments, each of them performed in duplicate. […] Non-specific binding was determined in the presence of 10 μM R-PIA. […] Non-specific binding was determined in the presence of 50 μM NECA. […] Non-specific binding was determined in the presence of 400 μM NECA. […] Non-specific binding was determined in the presence of 100 μM R-PIA. […] After the incubation time, membranes were washed and filtered, radioactivity was detected in a Microbeta Trilux reader (PerkinElmer).
(§2) The adenosinergic (affinity and selectivity) profile of several compounds of the invention was evaluated according to the above examples.

[2] = target: human A1AR (Homo sapiens, UniProt P30542); test: A1AR radioligand competition binding, [3H]DPCPX, CHO cell membranes; details: at 1 μM
Description: as §1, §2

[3] = target: human A3AR (Homo sapiens, UniProt P0DMS8); test: A3AR radioligand competition binding, [3H]NECA, HeLa cell membranes; details: at 1 μM
Description: as §1, §2

[4] = target: human A2BAR (Homo sapiens, UniProt P29275); test: A2BAR radioligand competition binding, [3H]DPCPX, HEK-293 cell membranes; details: read-out: A2B Ki; 25 nM [3H]DPCPX, 25° C. 30 min
Description: as §1, §2

[C-]#[N+]CCCOCCOCCOCCCNC(=O)C(C)(C)N1CCN(C(=O)CNC(=O)COc2ccc(-c3cc4c([nH]3)c(=O)n(CCC)c(=O)n4C)cc2)CC1
A2A specific binding inhibition percentage [1]: 13%
A1 specific binding inhibition percentage [2]: 61%
A3 specific binding inhibition percentage [3]: 57%
Ki [4]: 180 nM
